Calls of active or inactive are those of the source. The rule behind the calls is not given here.
Columns and labels:
[1] = target: T1, Retinoic acid receptor RXR-alpha (Homo sapiens) (UniProt P19793); experiment: Agonist activity at GAL4 DBD fused recombinant RXR alpha LBD (unknown origin) expressed in HEK292T cells cotransfected with pG5 luciferase plasmid assessed as receptor transactivation at 1 to 20 uM incubated for 12 hrs by dual luciferase reporter assay; format: cell-based; details: HEK293T, dose 1-20 µM
T1 sequence (whole entry): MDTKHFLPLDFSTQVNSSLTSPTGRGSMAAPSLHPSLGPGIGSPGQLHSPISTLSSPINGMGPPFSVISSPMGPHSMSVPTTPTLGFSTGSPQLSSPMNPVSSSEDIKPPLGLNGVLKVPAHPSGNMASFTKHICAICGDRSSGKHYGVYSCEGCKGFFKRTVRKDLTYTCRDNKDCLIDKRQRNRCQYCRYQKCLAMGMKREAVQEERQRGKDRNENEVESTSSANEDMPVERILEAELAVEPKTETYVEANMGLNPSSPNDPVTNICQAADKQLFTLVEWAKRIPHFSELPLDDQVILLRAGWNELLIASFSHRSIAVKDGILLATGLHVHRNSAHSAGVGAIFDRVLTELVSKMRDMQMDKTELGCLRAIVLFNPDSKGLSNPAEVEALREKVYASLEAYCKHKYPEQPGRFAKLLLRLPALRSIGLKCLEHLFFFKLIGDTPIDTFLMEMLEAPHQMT

[2] = test system: HepG2; experiment: Inhibition of lipid accumulation in oleic acid treated human HepG2 cells at 10 uM incubated for 24 hrs by Oil Red O staining based analysis; format: functional, cell-based

Row | Activity [1] | Compound | inhibition [2]
1 | inactive | C/C=C/C=C/C(O)=C1/C(=O)[C@@]2(C)[C@H]3\C(=C(O)/C=C/C=C/C)C(=O)[C@@]4(C)[C@@H]1[C@]1(C)O[C@@]4(O)[C@@]3(C)O[C@@]12O | 
2 | inactive | C/C=C/C=C/C(O)=C1/C(=O)[C@@]2(C)[C@H]3/C(=C(/O)CC/C=C/C)C(=O)[C@@]4(C)[C@@H]1[C@]1(C)O[C@@]4(O)[C@@]3(C)O[C@@]12O | 
3 |  | Oc1ccc(/C=C/c2cc(O)cc(O)c2)cc1 | Active
